# Laboratory results as given in patent publication US7579439B2, “Modulation of IL-2- and IL-15-mediated T cell responses” (Beth Israel Deaconess Medical Center, Inc., priority 2000, dated 2009).
# Legend:
# [1] = test system: T cells at the second cell division in vivo; assay: In vitro proliferation of sorted in vivo dividing T cells (3H-TdR uptake); format: cell-based, mice; conditions: IL-2 in doses as high as; IL-15 5 ng/ml; 48 hours
# Protocol: FIG. 4B is a bar graph depicting the different response of in vivo dividing T cells to IL-2 and IL-15 in vitro. CFSE-labeled lymphocytes were stimulated in vivo for three days and cell division was analyzed by examining the CFSE profile. T cells in the second cell division were sorted and cells (1×10^4) were cultured in vitro with IL-2 or IL-15 for two days. Cellular proliferation was determined by ^3H-TdR uptake. The results are presented as the mean CPM±SD of triplicate assays.
# Cell sorting and in vitro proliferation assays were carried out as follows. CFSE-labeled cells were prepared from irradiated allogeneic hosts three days after intravenous injection of labeled cells, and cell proliferation in vivo was identified by analysis of the cells' CFSE profile. The second cell division was selected, gated, and sorted with FACS Vantage™. Cells (1×10^4/ml) were resuspended in RPMI 1640 medium with 10% FCS and 1% penicillin and streptomycin, and stimulated with IL-2 (40 μ/ml to 500 μ/ml) or IL-15 (5 ng/ml) for 48 hours. Cells were pulsed with 1 mCi 3H-TdR (Amersham, Boston, Mass.) for 16 hours and ^3H-TdR uptake was determined by scintillation counting (Beckman Instrument, Columbia, Md.).
# [2] = test system: IL-2Rγ+ BAF-BO3 cell transfectants that express the IL-2Rβ subunit; assay: BAF-BO3 cell proliferation assay (IL-2Rβ transfectants); format: cell-based; conditions: BAF-BO3 transfectants expressing IL-2Rβ
# Text: A mutant IL-15 polypeptide that can be used according to the present invention will generally block at least 40%, more preferably at least 70%, and most preferably at least 90% of one or more of the activities of the wild-type IL-15 molecule. The ability of a mutant IL-15 polypeptide to block wild-type IL-15 activity can be assessed by numerous assays, including the BAF-BO3 cell proliferation assay described herein (in which the cells were transfected with a construct encoding IL-2Rβ). […] When examining the percent identity between two polypeptides, the length of the sequences compared will generally be at least 16 amino acids, preferably at least 20 amino acids, more preferably at least 25 amino acids, and most preferably at least 35 amino acids. The term “identity,” as used in reference to polypeptide or DNA sequences, refers to the identity between subunits (amino acid residues of proteins or nucleotides of DNA molecules) within the two polypeptide or DNA sequences being compared. […] Identity is typically and most conveniently measured using sequence analysis software, such as the Sequence Analysis Software Package of the Genetics Computer Group at the University of Wisconsin Biotechnology Center (1710 University Avenue, Madison, Wis. 53705), with the default parameters thereof. […]
# [3] = test system: PHA-activated human PBMCs; assay: [3H]-TdR incorporation assay, PHA-activated PBMCs; format: cell-based
# Protocol: In the next series of experiments, the FLAG-HMK-IL-15 fusion protein was tested to determine whether it could function as a biologically active growth factor. […] Thus, FLAG-HMK-IL-15 is a biologically active growth factor that requires expression of IL-2Rβ chains upon target cells in order to stimulate cellular proliferation.
substance,measurement,setting,value
IL-2: recombinant human IL-2,T cell proliferation by 3H-TdR uptake,[1],failed to support T cell proliferation
same,stimulation of proliferation,[2],stimulates proliferation
same,stimulation of cell proliferation,[3],proliferate in response to
